Tested on: MAPK (p38, Erk1/2 and JNK)

Question: Which “phosphorylation of p38, ERK1/2 or JNK by MBCD alone” value (1 or 5 mM MBCD) does the source give for methyl-β-cyclodextrin [MBCD] here?
Answer: The value was “no significant phosphorylation”.

Question: And the “levels of phosphorylated p38 and ERK1/2 in MBCD-treated vs saline-treated MØ” value (20 min after chitin particle stimulation)?
Answer: The value was “markedly increased”.
